# Apparent affinities of Ab-14 variants for a coronavirus HR2 peptide

Source: Li et al. 2023 (doi:10.1038/s41467-023-39022-2), MIT Lincoln Laboratory and A-Alpha Bio; data file from the FLAb repository.

Binding partner: SARS-CoV-2 spike HR2 peptide, sequence PDVDLGDISGINAS.

Parent: Ab-14, a human scFv built as VH, a (GGGGS)3 linker, VL. Only the CDRs of the heavy chain vary.
VH: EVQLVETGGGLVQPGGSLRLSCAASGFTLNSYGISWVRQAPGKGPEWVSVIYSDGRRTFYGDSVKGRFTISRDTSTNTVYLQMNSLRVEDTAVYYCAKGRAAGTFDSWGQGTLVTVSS
VL: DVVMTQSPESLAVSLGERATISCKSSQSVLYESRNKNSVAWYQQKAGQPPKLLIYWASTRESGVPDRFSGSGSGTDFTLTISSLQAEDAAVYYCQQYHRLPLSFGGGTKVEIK

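The starting antibody came from a phage panning campaign against this peptide. This is the validation round: designs drawn from the data on random variants, tested in the same kind of assay. Group labels follow the data file (Ctrl: baseline library sampled from a position-specific scoring matrix, with some repeated check sequences; Rand: our label for a block that the file lists under HC and that is probably the random mutants of the ten best first-round binders; En: ensemble of fine-tuned language models; GP: Gaussian process model; GPLM: also part of the Gaussian process libraries; HC: hill climbing; Gen: genetic algorithm; Gibbs: Gibbs sampling; a sequence that several methods proposed may carry one label only). The scFvs were displayed on barcoded MATa yeast, the peptide on MATalpha yeast. Mating (16 h, 30 °C) was followed by selection of diploids and sequencing of their barcodes. A regression on co-assayed BCL2-family reference pairs converts the normalised counts of each replicate to an apparent Kd. There are six technical replicates.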

The parent's heavy chain CDRs are GFTLNSYGIS, VIYSDGRRTFYGDSVK, GRAAGTFDS; each variant's own CDRs replace them letter for letter. Affinities are written as log10 Kd with Kd in nM; a lower number is a better binder. Averages over replicates are reported, and they cover detected replicates only. "nd" marks a missing value. The strain was present, yet no cells mated with the target were sequenced in any replicate, which points to weak or no binding. Values of this round are not directly comparable with the first-round values of the same sequences.

CDR-H1,CDR-H2,CDR-H3,group,"mean, log10 nM",replicates with signal
GFTLNSYGIS,VIYADGRRTAYLDSYK,GRAAGTFDS,Ctrl,nd,0/6
GFTVNSYGIS,VIYSDGRRTFYNDSVK,GRAAGTFDS,Ctrl,nd,0/6
GFALNEYGIS,VIYADGFRRSYQDKVK,GHIAGEFSV,En_Gibbs,nd,0/6
GFDLNEYGIS,VIYADGMRTFYSDSVK,GTNGGTFDI,En_HC,0.29,6/6
GFHLNSYGIS,VIYSDGRRTFYDDSVK,GTLAGTFDS,GP_HC,0.62,6/6
GFNLNEYGIS,VIYADGRRTFYADSVK,GEVAGTFDF,En_HC,-0.63,6/6
GFTLNMYGIS,VIYSDGRRLFYGDSVK,GRLGGTFDS,Ctrl,nd,0/6
GFSLGEYGIS,VIYADGERTNYVSNFK,GVHAGTFVL,En_Gibbs,nd,0/6
GFDLDEYGIS,VIYADGRRTFYADSVK,GELAGTFDF,En_HC,-0.87,6/6
GFNINSYGIS,VIYSDGRRTFYGDSVK,GRAAGTFDS,Ctrl,-0.24,3/6
GFSLNSYGIS,VIYSDGRRTFYIDTVK,GQAAGTFDS,GPLM_Gen,nd,0/6
GFDLNEYGIS,VIYADGRRTFYTDSVK,GNHAGTFDV,En_HC,0.07,6/6
GFDLDEYGIS,VIYADGVRTAYSDDVK,GENAGTFDV,En_Gen,0.10,6/6
QFELNSYGIS,VIYSDGRRTFYGDDVK,GRMAGTNDS,Ctrl,nd,0/6
GFDLDEYGIS,VIYADGVRTAYSDSVK,GNNAGTFDI,En_Gen,0.86,6/6
GFFLNEYGIS,VIYSDGRRTFYGDSVK,GQAAGTFDS,GPLM_Gen,1.79,5/6
GFDLNEYGIS,VIYADGRRTAYADSVK,GNQAGTFDL,En_Gen,0.23,6/6
GFTLNSYGIS,VIYSDGRRTGYGDSVK,GRAAGPFNS,Ctrl,nd,0/6
GFVLNSYGIS,VIYSDGRRTFYADSVK,GQTAGTFDS,GPLM_Gen,1.60,6/6
GFDLNEYGIS,VIYADGMRTYYADSVK,GTNAGTFDM,En_Gen,-0.73,6/6
GFSLNEYGIS,VIYSDGRRTFYADSVK,GRTAGTFDS,GPLM_Gen,-0.15,6/6
GFNLDEYGIS,VIYADGARTAYTNKVK,GGNWMISVT,En_Gibbs,nd,0/6
GFLLNSYGIS,VIYSDGRRTFYGDSVK,GRAEGRFDS,Ctrl,1.90,1/6
GFHLNSYGIS,VIYSDGRRTAYGDSVK,GRQAGTFDS,GP_Gen,-0.03,4/6
GFTLNEYGIS,VIYSDGRRTFYSDSVK,GRAAGHFDS,GPLM_HC,-0.20,6/6
GFDLNEYGIS,VIYADGQRTFYADSVK,GEVAGTFDI,En_Gen,-1.44,4/6
GFQLNEYGIS,VIYSDGRRTFYGDSVK,GRAAGTFRS,GP_HC,2.36,1/6
GFSLNSYGIS,VIYSDGRRTFYEDSVK,GRQAGTFDS,GPLM_Gen,0.53,6/6
GFDLDEYGIS,VIYADGMRTAYTDSVK,GNVAGTFDL,En_Gen,0.86,6/6
GFDLNEYGIS,VIYADGVRKAYADSVK,GEVAGTFDI,En_Gen,2.34,5/6
GFDLNEYGIS,VIYADGMRSFYADSVK,GQNAGTFDV,En_HC,-0.51,6/6
GFTLESYGIS,VIYSDGRRTFYGDSVK,GSVAGTFDS,Ctrl,1.08,6/6
SFTLNSYGIS,VIYADGKRTFYGDSVK,GRAAGTFKS,GP_HC,nd,0/6
GFDLNEYGIS,VIYADGQRTAYADAVK,GNVAGTFDV,En_Gen,-0.86,6/6
GFDLNSYGIS,VIYSDGRRNFYGDSVK,GRAAGWFNS,Rand,nd,0/6
GFTSDSYGIS,VIYSDGRRTFYGDSVK,GRAAGTALS,Rand,nd,0/6
GDWLNSYGIS,VIYSDGRRTFYDDSVK,GQLGGTFDR,Rand,nd,0/6
GFNLNEYGIS,VIYADGMRTFYSDSVK,GEAAGTFDV,En_HC,-0.40,6/6
GFSLNEYGIS,VIYSDGRRTFYGDSVK,GRAAGTDDD,Ctrl,nd,0/6
GFDLDEYGIS,VIYADGKRTAYTDSVK,GEVAGTFDT,En_Gen,-0.42,6/6
GFDLNEYGIS,VIYADGSRTFYADSVK,GNNAGTFDV,En_Gen,0.02,6/6
GFDLDEYGIS,VIYADGMRTAYSDKVK,GENAGTFDV,En_Gen,-0.27,6/6
GFDLNSYGIS,VIYSDGRRTFYGDSVK,GQEAGTFDS,GP_Gen,0.28,6/6
GFDLDEYGIS,VIYADGMRTFYIDSVK,GETAGTFDV,En_HC,-0.86,5/6
GKGLDEYGVS,VIYADGKRKSYVDDVK,GGIAGQFLV,En_Gibbs,nd,0/6
GFDLNEYGIS,VIYADGRRTFYADSVK,GNEAGTFDM,En_HC,-0.36,6/6
GFDLNEYGIS,VIYADGSRTVYSDSVK,GQTAGTFDV,En_HC,0.88,6/6
GFNLNSYGIS,VIYSDGRRTFYGDQVK,GNAAGTFDS,GPLM_Gibbs,1.37,5/6
GFDLNEYGIS,VIYADGRRTFYADSVK,GVNAGTFDS,En_HC,-0.16,6/6
GFDLNEYGIS,VIYADGQRTAYADSVK,GNNAGTFDL,En_Gen,nd,0/6
GFSLEEYGIS,VIYADGVRRSYSDNVK,GFNGEVSIV,En_Gibbs,nd,0/6
GFDLNSYGIS,VIYSDGRRTFYGDQVK,GRTAGTFDD,GP_Gen,0.54,6/6
GFTLNDYGIS,VIDSDGRRTFYGDSVK,GRRALTFIS,Rand,nd,0/6
GFSLNSYGIS,VIYSDGRRTFYTDSVK,GRWAGTFDS,GP_Gibbs,1.40,6/6
GQSLEEYGIS,VIYADGFRTQYKNSVK,GKNSFDITV,En_Gibbs,nd,0/6

Picked from the list: the 7 lowest averages where every replicate gave a value.

| CDR-H1 | CDR-H2 | CDR-H3 | group | mean, log10 nM | replicates with signal |
|---|---|---|---|---|---|
| GFDLDEYGIS | VIYADGRRTFYADSVK | GELAGTFDF | En_HC | -0.87 | 6/6 |
| GFDLNEYGIS | VIYADGQRTAYADAVK | GNVAGTFDV | En_Gen | -0.86 | 6/6 |
| GFDLNEYGIS | VIYADGMRTYYADSVK | GTNAGTFDM | En_Gen | -0.73 | 6/6 |
| GFNLNEYGIS | VIYADGRRTFYADSVK | GEVAGTFDF | En_HC | -0.63 | 6/6 |
| GFDLNEYGIS | VIYADGMRSFYADSVK | GQNAGTFDV | En_HC | -0.51 | 6/6 |
| GFDLDEYGIS | VIYADGKRTAYTDSVK | GEVAGTFDT | En_Gen | -0.42 | 6/6 |
| GFNLNEYGIS | VIYADGMRTFYSDSVK | GEAAGTFDV | En_HC | -0.40 | 6/6 |

Three control strains display no target. For all heavy chain designs, 1% of the pairings with them gave a signal, with a median of 2.08 and one signal in twenty below 0.84, so weak values seen in few replicates may be background. In the paper, a design with two or fewer of six values counts as a poor binder. The parent sequence was in this pool as ten entries: three were never detected, three once, and four in most replicates, with averages from 0.34 to 2.37.